Test results published in ChEMBL document CHEMBL1131078, “Small molecular probes for G-protein-coupled C5a receptors: conformationally constrained antagonists derived from the C terminus of the human plasma protein C5a” (J Med Chem, 1998).

Molecular target: T1, C5a anaphylatoxin chemotactic receptor 1 (Homo sapiens, UniProt P21730)
T1 sequence (P21730 whole entry): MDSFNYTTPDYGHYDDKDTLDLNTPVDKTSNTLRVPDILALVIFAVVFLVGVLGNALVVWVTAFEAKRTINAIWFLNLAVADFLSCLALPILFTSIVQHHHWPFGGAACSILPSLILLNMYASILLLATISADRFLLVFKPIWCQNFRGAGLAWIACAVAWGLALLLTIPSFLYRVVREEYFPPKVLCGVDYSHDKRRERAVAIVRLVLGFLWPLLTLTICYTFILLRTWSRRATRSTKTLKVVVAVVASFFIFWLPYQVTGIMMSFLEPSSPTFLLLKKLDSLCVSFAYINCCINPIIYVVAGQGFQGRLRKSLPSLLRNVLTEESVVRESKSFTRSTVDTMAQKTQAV
Experiment: 50% reduction in myeloperoxidase secretion from human PMNs mediated by 100 nM C5a

Work on CC(=O)N[C@@H](Cc1ccccc1)C(=O)N[C@H]1CCCCNC(=O)[C@H](CCCNC(=N)N)NC(=O)[C@H](Cc2c[nH]c3ccccc23)NC(=O)[C@@H](CC2CCCCC2)NC(=O)[C@@H]2CCCN2C1=O yielded an IC50 of 90 nM.
